From publication PMC6728138, “Quantitative mapping of protein-peptide affinity landscapes using spectrally encoded beads” (eLife, 2019)

What was measured:
[1] = target: T1, calcineurin (CN) heterodimer, wild type: N-terminally 6-His-tagged human calcineurin A truncated at residue 400 with the calcineurin B subunit, Q08209; conditions: modification not given
[2] = target: T2, calcineurin (CN) heterodimer, wild type: N-terminally 6-His-tagged human calcineurin A truncated at residue 400 with the calcineurin B subunit, Q08209;P63098; assay: MRBLE-pep (peptides on spectrally encoded beads); conditions: parent: est. 0.0 kcal/mol; read off a plot
[3] = target: T1, calcineurin (CN) heterodimer, wild …; conditions: modification not given; remark: listed apart in the source
[4] = target: T1, calcineurin (CN) heterodimer, wild …; conditions: modification not given; remark: listed apart in the source
[5] = target: T1, calcineurin (CN) heterodimer, wild …; conditions: modification not given; remark: listed apart in the source
[6] = target: T1, calcineurin (CN) heterodimer, wild …; conditions: modification not given; remark: listed apart in the source
[7] = target: T1, calcineurin (CN) heterodimer, wild …; conditions: modification not given; remark: listed apart in the source
[8] = target: T1, calcineurin (CN) heterodimer, wild …; conditions: modification not given; remark: listed apart in the source
[9] = target: T1, calcineurin (CN) heterodimer, wild …; conditions: modification not given; remark: listed apart in the source
[10] = target: T1, calcineurin (CN) heterodimer, wild …; conditions: modification not given; remark: listed apart in the source
[11] = target: T1, calcineurin (CN) heterodimer, wild …; conditions: modification not given; remark: listed apart in the source
[12] = target: T1, calcineurin (CN) heterodimer, wild …; conditions: modification not given; remark: listed apart in the source
[13] = target: T1, calcineurin (CN) heterodimer, wild …; conditions: modification not given; remark: listed apart in the source
[14] = target: T1, calcineurin (CN) heterodimer, wild …; conditions: modification not given; remark: listed apart in the source
[15] = target: T1, calcineurin (CN) heterodimer, wild …; conditions: modification not given; remark: listed apart in the source
[16] = target: T1, calcineurin (CN) heterodimer, wild …; conditions: modification not given; remark: listed apart in the source
[17] = target: T1, calcineurin (CN) heterodimer, wild …; conditions: modification not given; remark: listed apart in the source
[18] = target: T1, calcineurin (CN) heterodimer, wild …; conditions: modification not given; remark: listed apart in the source
[19] = target: T1, calcineurin (CN) heterodimer, wild …; conditions: modification not given; remark: listed apart in the source
[20] = target: T1, calcineurin (CN) heterodimer, wild …; conditions: modification not given; remark: listed apart in the source
[21] = target: T1, calcineurin (CN) heterodimer, wild …; conditions: modification not given; remark: listed apart in the source
[22] = target: T2, calcineurin (CN) heterodimer, wild …; assay: MRBLE-pep (full calibration library, calibrated Kd); conditions: chain shown with the change;; read off a plot
[23] = target: T1, calcineurin (CN) heterodimer, wild …; conditions: modification not given; remark: listed apart in the source
[24] = target: T1, calcineurin (CN) heterodimer, wild …; conditions: modification not given; remark: listed apart in the source

Kd [1]: 20 nM
B1: …ZEE (peptide)
chain: IPKIIITYPTEE

Kd [7]: 10 nM
B7: …ZEE (peptide)
chain: IPKIIVTAPTEE

Kd [16]: 130 nM
B16: … (peptide)
chain: KRMEPPKIIITDTSIS

Kd [17]: 160 nM
B17: … (peptide)
chain: KRMEPIAIIITRTEIS

Kd [18]: 680 nM
B18: … (peptide)
chain: KRMEPPAIIITDTEIS

Kd [19]: 5740 nM
B19: … (peptide)
chain: HPKIVLTGPHEE

Kd [20]: 160 nM
B20: … (peptide)
chain: TPKIVITGPHEE

Kd [21]: 420 nM
B21: … (peptide)
chain: ASGLSPRILITPSHEL

Kd [23]: 2060 nM
B23: … (peptide)
chain: KRMEPIAIYITDTEIS

Kd [24]: 680 nM
B24: … (peptide)
chain: VPKIIITYPGEE

Further lines, the binder ahead of its results:

B2: PKIVIT peptide (PVIVIT scaffold with V2K) V4F (peptide)
chain: AGPHPKIFITGPHEE
ddG [2]: 0.1 kcal/mol

B3: … (peptide)
chain: KRMEPIAIIITDTTIS
Kd [3]: 700 nM

B4: … (peptide)
chain: HPKIVITNPHEE
Kd [4]: 3590 nM

B5: PSIVIT (peptide)
chain: MAGPHPSIVITGPHEE
Kd [5]: 900 nM

B6: … (peptide)
chain: ASGLSPRIEITPFHEL
Kd [6]: 2650 nM

B8: … (peptide)
chain: ASGLSPRIAITPSHEL
Kd [8]: 1640 nM

B9: … (peptide)
chain: ASGLSPRIEISPSHEL
Kd [9]: 6340 nM

B10: … (peptide)
chain: HPLIVITGPHEE
Kd [10]: 240 nM

B11: … (peptide)
chain: KRMEPIAIIITKTEIS
Kd [11]: 420 nM

B12: … (peptide)
chain: HPKIVITTPHEE
Kd [12]: 1190 nM

B13: … (peptide)
chain: IPKIIVTYPDEE
Kd [13]: 350 nM

B14: … (peptide)
chain: IPKIIITYPGEE
Kd [14]: 300 nM

B15: … (peptide)
chain: ASGLSPRIEIFPSHEL
Kd [15]: 3800 nM

B22: NFATc2 PxIxIT peptide (WT …) S-1L (peptide)
chain: LPRIEITPSH
Kd [22]: 1000 nM

Like-named read-outs stand apart in the source and are kept apart here. One block for each binder: values may come before it.
